{"source": "patent US20180355033A1", "about": "“ANTIBODIES, COMPOUNDS AND SCREENS FOR IDENTIFYING AND TREATING CACHEXIA OR PRE-CACHEXIA” (Dana-Farber Cancer Institute, Inc., priority 2015, published 2018)", "tested_on": "human muscle cells", "experiment": "Competition/depletion of RAGE ligands with recombinant soluble RAGE, MyoHC loss", "assay_type": "cell-based", "description": "Muscle cells were treated with 1, 2, 10, 30 μg/ml rsRAGE in the presence of either cachexia-inducing conditioned media (CI-CM) or non-cachexia-inducing conditioned media (NCI-CM). […] RAGE ligands were depleted by treatment with 10 μg/ml rsRAGE and reconstituted by treatment with 1×, 0.5×, 0.25× of eluent (PBS).", "data": [{"substance": "rsRAGE: recombinant soluble RAGE that competes with membrane-bound RAGE for binding RAGE ligands", "values": [{"measurement": "inhibition of cachectic induced loss of MyoHC protein", "setting": "1, 2, 10, 30 μg/ml rsRAGE with CI-CM or NCI-CM", "result": "inhibit the cachectic induced loss of MyoHC protein"}, {"measurement": "depletion of cachexia activity from conditioned media", "setting": "FIG. 39", "result": "depletes conditioned media of cachexia activity"}]}]}
